Values quoted from earlier work in patent US20050176623A1, “Non-invasive treatment of disease using amphipathic compounds” (priority 2004, published 2005).

Conditions: metered dose inhaler

insulin
amount delivered into the serum per inhaled breath: 15 mg
